Experimental data: the Kinase Knowledgebase extract (Sharma et al. 2016)

Amino acid sequences for entries named in this document (tags omitted). A change or cut given only in a name is not applied to a line headed by its entry.
UniProt P42338: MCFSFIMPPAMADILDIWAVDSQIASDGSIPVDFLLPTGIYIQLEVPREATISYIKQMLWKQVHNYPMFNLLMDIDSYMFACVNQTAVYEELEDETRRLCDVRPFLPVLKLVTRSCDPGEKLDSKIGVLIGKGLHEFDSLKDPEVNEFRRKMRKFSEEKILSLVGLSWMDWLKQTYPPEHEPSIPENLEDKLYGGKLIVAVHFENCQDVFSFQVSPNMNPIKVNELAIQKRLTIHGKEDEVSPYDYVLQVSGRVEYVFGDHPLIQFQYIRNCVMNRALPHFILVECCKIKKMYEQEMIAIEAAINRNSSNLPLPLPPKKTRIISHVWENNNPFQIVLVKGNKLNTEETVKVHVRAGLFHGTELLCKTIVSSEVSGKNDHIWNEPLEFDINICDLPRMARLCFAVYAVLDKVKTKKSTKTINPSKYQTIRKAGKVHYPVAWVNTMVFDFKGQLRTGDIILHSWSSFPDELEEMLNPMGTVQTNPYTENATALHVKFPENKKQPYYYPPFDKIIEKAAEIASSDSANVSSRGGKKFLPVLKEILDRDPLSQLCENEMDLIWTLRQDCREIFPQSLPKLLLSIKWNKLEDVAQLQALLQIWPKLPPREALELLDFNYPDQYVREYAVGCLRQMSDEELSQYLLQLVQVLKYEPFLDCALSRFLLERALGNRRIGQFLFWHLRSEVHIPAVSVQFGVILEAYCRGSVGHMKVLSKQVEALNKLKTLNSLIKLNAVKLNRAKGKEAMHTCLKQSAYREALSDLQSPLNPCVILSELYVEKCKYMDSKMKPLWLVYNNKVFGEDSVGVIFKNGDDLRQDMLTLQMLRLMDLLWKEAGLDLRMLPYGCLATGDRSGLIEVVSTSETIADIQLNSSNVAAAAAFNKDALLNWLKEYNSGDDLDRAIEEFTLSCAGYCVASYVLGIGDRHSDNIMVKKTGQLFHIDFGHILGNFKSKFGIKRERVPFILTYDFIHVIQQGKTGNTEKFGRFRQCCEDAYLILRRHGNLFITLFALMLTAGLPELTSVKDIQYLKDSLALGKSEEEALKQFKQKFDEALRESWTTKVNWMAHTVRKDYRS

Target: PIK3CB (Human) (UniProt P42338)
Assay: Enzyme Assay

IC50: 37 nM
SMILES: Nc1ncc(-c2cc(N3CCOCC3)nc(N3CCOCC3)n2)c(C(F)(F)F)n1
